Data published in PubChem BioAssay AID588511 (Johns Hopkins Ion Channel Center, 2011).
Only a part is listed here, and it is no random draw. Active and inactive are the calls of the source.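 The calls were made as follows: active = ratio plate-corrected score three or more library SD toward inhibition, starting fluorescence score within five deviations; inactive = the rest.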

By UniProt entry, the sequences of proteins in these tests, tags left out. Where a name states a change or a piece, a line headed by the entry shows the natural chain unless it says otherwise.
UniProt Q8BHY3: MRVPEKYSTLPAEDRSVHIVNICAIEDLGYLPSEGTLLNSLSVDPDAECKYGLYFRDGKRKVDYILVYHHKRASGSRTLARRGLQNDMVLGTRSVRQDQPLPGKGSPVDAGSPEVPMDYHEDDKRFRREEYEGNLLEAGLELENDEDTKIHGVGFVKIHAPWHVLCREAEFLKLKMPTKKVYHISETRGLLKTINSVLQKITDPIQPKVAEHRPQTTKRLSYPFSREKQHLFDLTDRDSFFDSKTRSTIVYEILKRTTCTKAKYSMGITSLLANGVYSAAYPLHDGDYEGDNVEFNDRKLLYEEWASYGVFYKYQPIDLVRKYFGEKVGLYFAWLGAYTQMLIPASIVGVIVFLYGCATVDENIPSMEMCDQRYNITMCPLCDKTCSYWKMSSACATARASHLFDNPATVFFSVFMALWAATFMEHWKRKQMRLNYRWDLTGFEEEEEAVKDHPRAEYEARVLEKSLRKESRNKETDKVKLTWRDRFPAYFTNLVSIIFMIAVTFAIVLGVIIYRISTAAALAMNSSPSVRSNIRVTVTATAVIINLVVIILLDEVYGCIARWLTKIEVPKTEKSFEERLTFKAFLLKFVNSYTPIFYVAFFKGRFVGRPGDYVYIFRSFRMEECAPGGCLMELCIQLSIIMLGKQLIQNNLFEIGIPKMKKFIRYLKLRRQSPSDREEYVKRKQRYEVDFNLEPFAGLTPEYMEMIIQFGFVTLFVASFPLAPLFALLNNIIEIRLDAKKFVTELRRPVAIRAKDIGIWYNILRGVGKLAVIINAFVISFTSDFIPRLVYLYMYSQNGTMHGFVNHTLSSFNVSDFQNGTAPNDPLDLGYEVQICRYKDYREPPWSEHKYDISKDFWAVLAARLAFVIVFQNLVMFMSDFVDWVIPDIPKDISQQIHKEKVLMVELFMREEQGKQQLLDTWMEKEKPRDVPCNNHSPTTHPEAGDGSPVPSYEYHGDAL

biological target: Anoctamin-1 (Mus musculus) (UniProt Q8BHY3); assay: TMEM16A chloride channel inhibitors, primary screen, cell-based, HTS (AID 588511); details: HEK293 TMEM16A/YFP iodide influx fluorescence, ionomycin; at 10 µM

| Compound | B-score |
| --- | --- |
| CCc1nc2c(n1)c1c(non1O)c1c2no[n+]1[O-] | active: 25 |
| O=[N+]([O-])c1ccc(O)c(/C=N/Nc2ccc([N+](=O)[O-])cc2[N+](=O)[O-])c1 | active: 100 |
